Values quoted from earlier work in patent US20120309691A1, “TUMOR TARGETED DELIVERY OF IMMUNOMODULATORS BY NANOPOLYMERS” (priority 2010, published 2012).

System: advanced metastatic melanoma
Settings: retrospective long-term analysis; cited from earlier work

Q: Which results are given for “IL-2: exogenous cytokine approved for advanced metastatic melanoma”?
A: durable response rate: 4%; objective response rate: 16%
